Reference: US9873702B2, “Heterocyclic compounds as biogenic amine transport modulators” (Southern Research Institute, priority 2014, dated 2018)

Sequences of proteins named here, by UniProt entry; tags and fusion partners are left off.
UniProt P31652, whole entry: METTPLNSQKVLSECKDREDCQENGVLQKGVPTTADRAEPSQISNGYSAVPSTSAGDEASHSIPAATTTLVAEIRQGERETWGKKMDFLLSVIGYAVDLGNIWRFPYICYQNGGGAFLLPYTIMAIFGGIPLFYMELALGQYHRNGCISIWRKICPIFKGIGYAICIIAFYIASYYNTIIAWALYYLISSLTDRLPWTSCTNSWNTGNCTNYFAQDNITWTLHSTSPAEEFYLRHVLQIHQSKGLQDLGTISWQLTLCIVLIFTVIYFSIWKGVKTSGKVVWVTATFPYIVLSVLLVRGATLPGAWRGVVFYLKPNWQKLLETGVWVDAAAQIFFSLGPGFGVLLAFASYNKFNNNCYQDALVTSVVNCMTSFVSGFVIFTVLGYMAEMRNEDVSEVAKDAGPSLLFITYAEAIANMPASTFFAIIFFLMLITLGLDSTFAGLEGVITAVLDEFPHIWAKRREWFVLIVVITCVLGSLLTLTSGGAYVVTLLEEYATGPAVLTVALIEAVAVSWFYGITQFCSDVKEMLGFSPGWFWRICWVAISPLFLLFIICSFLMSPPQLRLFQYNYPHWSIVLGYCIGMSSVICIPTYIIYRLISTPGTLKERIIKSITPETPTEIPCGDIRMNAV

Tests used:
[1] = target: norepinephrine transporter (NET) (Rattus norvegicus, UniProt Q9WTR4); assay: Norepinephrine reuptake ([^3H]norepinephrine uptake) inhibition in rat brain synaptosomes; settings: read-out: NET Uptake IC50; mean ± S.D., n = 3
[2] = target: T1, serotonin transporter (SERT) (Rattus norvegicus, UniProt P31652); assay: Serotonin reuptake ([^3H]serotonin uptake) inhibition in rat brain synaptosomes; type: biochemical
T1 construct: Freshly removed whole brain minus cerebellum and caudate was homogenized; from tissue; host or cells: rat whole brain minus cerebellum and caudate, synaptosomes

With `COC(=O)[C@H]1[C@@H](OC(=O)c2ccccc2)C[C@@H]2CC[C@H]1N2C` [cocaine, reference compound] the IC50 [1] was 329 ± 22 nM and the IC50 [2] was 273 ± 24 nM.
